# Experimental data from paper PMC5741663, “Antimicrobial peptide capsids of de novo design” (Nature Communications, 2017).
# Test system: K. pneumoniae (NCTC 5055)
# Type: cell-based
# Settings: NCTC 5055, 24 h
# Description: MICs were determined by broth microdilution on different bacteria according to the Clinical and Laboratory Standards Institute. Typically, 100 μL of 0.5–1 × 10^6 CFU mL^–1 of each bacterium in Mueller Hinton media broth (Oxoid) were incubated in 96-well microtitre plates with 100 μL of serial two-fold dilutions of the peptides (from 100 to 0 μM) at 37 °C on a 3D orbital shaker. The absorbance was measured after peptide addition at 600 nm using a Victor 2 plate reader (Perkin-Elmer). MICs were defined as the lowest peptide concentration after 24 h at 37 °C.
compound,measurement,value
CCCCCCCCCC(=O)N[C@@H](Cc1c[nH]c2ccccc12)C(=O)N[C@H](CC(N)=O)C(=O)N[C@@H](CC(=O)O)C(=O)N[C@@H]1C(=O)NCC(=O)N[C@@H](CCCN)C(=O)N[C@@H](CC(=O)O)C(=O)N[C@H](C)C(=O)N[C@@H](CC(=O)O)C(=O)NCC(=O)N[C@H](CO)C(=O)N[C@@H]([C@H](C)CC(=O)O)C(=O)N[C@@H](CC(=O)c2ccccc2N)C(=O)O[C@@H]1C [Daptomycin],Minimum inhibitory concentrations,>50 µM
